{"source": "paper PMC2997321", "about": "(British Journal of Clinical Pharmacology, 2010)", "origin": "cited, not measured here", "conditions": "rapidly metabolized by enzymes such as DPP-IV; ref [5], [15]", "data": [{"substance": "glucagon-like peptide-1 [Native GLP-1]", "values": [{"measurement": "half-life (t1/2)", "value": "< 2", "unit": "min"}]}]}
